1 compound from patent US11116760B2 (Gilead Sciences, Inc., priority 2018, dated 2021) can be followed below.

The chains behind the UniProt entries cited, without tags or fusion partners. Residues count along the entry.
UniProt P13612, 34-1032: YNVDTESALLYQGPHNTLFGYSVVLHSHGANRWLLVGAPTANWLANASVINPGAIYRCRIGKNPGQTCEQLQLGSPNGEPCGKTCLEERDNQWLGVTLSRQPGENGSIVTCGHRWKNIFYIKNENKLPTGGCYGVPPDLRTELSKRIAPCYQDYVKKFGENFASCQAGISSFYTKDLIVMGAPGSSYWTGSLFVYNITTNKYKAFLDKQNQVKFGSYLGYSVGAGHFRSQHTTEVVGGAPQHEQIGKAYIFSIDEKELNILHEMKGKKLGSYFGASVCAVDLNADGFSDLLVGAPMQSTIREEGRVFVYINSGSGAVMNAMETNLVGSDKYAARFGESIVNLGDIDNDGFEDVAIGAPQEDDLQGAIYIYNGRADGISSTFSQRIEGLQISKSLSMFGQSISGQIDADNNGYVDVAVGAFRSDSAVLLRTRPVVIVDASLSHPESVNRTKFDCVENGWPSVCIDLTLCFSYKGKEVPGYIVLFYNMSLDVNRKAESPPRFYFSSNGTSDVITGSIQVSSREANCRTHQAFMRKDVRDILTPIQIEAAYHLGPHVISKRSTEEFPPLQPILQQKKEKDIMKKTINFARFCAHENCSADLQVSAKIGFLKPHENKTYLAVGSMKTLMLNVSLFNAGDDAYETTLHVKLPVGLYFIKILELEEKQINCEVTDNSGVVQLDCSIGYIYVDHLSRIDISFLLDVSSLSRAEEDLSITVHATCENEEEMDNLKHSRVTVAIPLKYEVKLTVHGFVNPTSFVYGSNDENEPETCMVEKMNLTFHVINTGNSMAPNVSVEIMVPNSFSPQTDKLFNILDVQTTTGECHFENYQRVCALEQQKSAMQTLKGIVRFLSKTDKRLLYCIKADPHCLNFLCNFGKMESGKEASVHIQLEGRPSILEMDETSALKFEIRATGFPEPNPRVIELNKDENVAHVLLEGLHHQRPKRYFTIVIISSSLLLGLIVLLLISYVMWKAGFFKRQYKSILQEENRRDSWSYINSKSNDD
UniProt P26010, 20-798: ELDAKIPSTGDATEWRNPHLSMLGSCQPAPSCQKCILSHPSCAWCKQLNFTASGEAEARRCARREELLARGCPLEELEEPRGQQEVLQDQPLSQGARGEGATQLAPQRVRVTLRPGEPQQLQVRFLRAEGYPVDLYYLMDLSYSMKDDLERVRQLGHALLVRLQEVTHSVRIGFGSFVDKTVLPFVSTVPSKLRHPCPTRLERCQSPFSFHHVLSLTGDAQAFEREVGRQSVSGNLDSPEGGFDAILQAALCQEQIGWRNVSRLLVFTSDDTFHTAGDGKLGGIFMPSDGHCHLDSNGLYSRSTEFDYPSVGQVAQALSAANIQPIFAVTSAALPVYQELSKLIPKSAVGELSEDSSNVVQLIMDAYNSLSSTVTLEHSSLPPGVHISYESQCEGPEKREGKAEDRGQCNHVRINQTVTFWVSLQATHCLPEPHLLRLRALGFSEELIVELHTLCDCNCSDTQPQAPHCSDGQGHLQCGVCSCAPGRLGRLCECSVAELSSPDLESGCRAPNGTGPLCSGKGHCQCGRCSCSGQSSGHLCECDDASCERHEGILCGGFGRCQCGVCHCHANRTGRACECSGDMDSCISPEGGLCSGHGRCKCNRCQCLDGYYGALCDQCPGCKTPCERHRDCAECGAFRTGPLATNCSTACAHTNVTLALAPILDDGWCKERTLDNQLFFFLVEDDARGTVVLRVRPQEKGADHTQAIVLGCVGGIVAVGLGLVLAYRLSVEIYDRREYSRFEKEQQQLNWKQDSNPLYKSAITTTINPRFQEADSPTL

The assay addresses α4β7 integrin (Homo sapiens (Human), UniProt P13612+P26010). The assay is described as follows: α4β7 Integrin Cell Capture Assay. The class given is cell-based. As for the experimental part:
α4β7 Integrin Cell Capture Assay
The potency of inhibitors in preventing α4β7 integrin interaction with MadCAM-1 was measured by monitoring the capture of α4β7 integrin expressing cells on a recombinant MadCAM-1 extracellular domain-coated plate. […] The plates were then washed with PBS and blocked with 3% BSA for 2 hours before being washed again.
RPM18866 cells were spun down and re-suspended in assay medium (DMEM+0.5% FBS+0.5 mM MnCl2) at a density of 0.5×10^6 cells/mL. […] The plates were incubated at 37° C. for 1 hour. 50 μL of cells were transferred to the blocked, MadCAM-1-coated plates and incubated for 30 minutes at 37° C. […] The plates were incubated for 90 minutes at room temperature. The plates were then washed 3 times with 70 μL of PBS per well and imaged on a Cellomics ArrayScan instrument. The cells that were bound to the plate were counted and plotted against the compound concentration to determine the EC50 of the test compounds.

In the case of `CC[C@@H](Nc1cc(F)c(C(=O)N[C@@H](Cc2ccc(-c3cc4cnccc4n(C)c3=O)c3ncccc23)C(=O)O)c(F)c1)C(F)(F)F` [Example 112, (S)-2-(2,6-difluoro-4-(((R)-1,1,1-trifluorobutan-2-yl)amino)benzamido)-3-(8-(1-methyl-2-oxo-1,2-dihydro-1,6-naphthyridin-3-yl)quinolin-5-yl)propanoic acid], the EC50 was determined as 0.4 nM.

What is called EC50 is the concentration at which the effect is half-maximal. Read a low EC50 as an effect from little substance.
